The test relates to panel of 140 standard cancer cell lines. Description: ProliFiler-140 cancer cell line screen (CellTiterGlo, 72 h). In kind it is cell-based. To be noted: listed as Dox. The protocol:
Incubations were performed for 72 h before automated viability readout with CellTiterGlo (Figure 8).
End of Figure S11 (part 5 of 5): ProliFiler-140 cancer cell line screening for cytotoxicity of the prodrugs.
8-data-point dose response curves from CellTiter-Glo® viability readout.
ProliFiler-140 cell line panel part V

Regarding `COc1cccc2c1C(=O)c1c(O)c3c(c(O)c1C2=O)C[C@@](O)(C(=O)CO)C[C@@H]3O[C@H]1C[C@H](N)[C@H](O)[C@H](C)O1` [doxorubicin, reference compound], the IC50 runs as follows: (BEN (Lung)) 4070 nM; (Colo 205 (Colon)) 148 nM; (MCF-7 (Breast)) 231 nM.

The values above are taken from paper PMC10141580, “Cyclic Dichalcogenides Extend the Reach of Bioreductive Prodrugs to Harness Thiol/Disulfide Oxidoreductases: Applications to seco-Duocarmycins Targeting the Thioredoxin System” (ACS Central Science, 2023).
